Laboratory results taken from article PMC6308944, “Anti-Candida albicans Activity of Thiazolylhydrazone Derivatives in Invertebrate and Murine Models” (Journal of Fungi, 2018).

Key:
Candida albicans CAN14 = assay: Survival of C. albicans-infected G. mellonella; type: in vivo, Galleria mellonella; conditions: for survival of infected larvae: 7th day; for survival of infected larvae compared to untreated controls: all tested concentrations (5, 10 and 15 mg/kg)
G. mellonella larvae = assay: Compound toxicity in G. mellonella; type: in vivo; conditions: uninfected larvae, 10 mg/kg, till 144 h post-treatment

Substance | survival of infected larvae (Candida albicans CAN14; 5 mg/kg) [%] | survival of infected larvae (Candida albicans CAN14; 10 mg/kg) [%] | survival of infected larvae compared to untreated controls (Candida albicans CAN14) | larvae survival, toxicity test (G. mellonella larvae) [%] | survival of infected larvae (Candida albicans CAN14; 15 mg/kg) [%]
2-((2-cyclohexylidene)hydrazino)-4-(4-methoxyphenyl)-thiazole [Compound 3] | 37 | 37 | significantly prolonged survival | 95 | –
2-((2-cyclopentylidene)hydrazino)-4-(4-methoxyphenyl)-thiazole [Compound 4] | – | 25 | significantly prolonged survival | 95 | 25
